{"sequences": {"note": "Sequences of proteins named here, by UniProt entry; tags and fusion partners are left off. A change or cut given only in a name is not applied to a line headed by its entry.", "UniProt P41145": "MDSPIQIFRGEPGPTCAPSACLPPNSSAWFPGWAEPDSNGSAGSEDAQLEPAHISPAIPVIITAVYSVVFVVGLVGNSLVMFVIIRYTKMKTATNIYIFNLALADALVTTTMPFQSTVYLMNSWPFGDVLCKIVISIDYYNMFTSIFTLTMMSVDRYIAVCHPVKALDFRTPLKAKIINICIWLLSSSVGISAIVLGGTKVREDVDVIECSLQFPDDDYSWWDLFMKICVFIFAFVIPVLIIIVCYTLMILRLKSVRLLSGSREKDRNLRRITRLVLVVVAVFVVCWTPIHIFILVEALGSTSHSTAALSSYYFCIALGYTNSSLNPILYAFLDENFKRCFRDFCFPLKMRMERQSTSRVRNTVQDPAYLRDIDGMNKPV"}, "source": "ChEMBL document CHEMBL1152513", "about": "“Synthesis and characterizations of novel quinoline derivatives having mixed ligand activities at the kappa and mu receptors: Potential therapeutic efficacy against morphine dependence” (Bioorg Med Chem, 2009)", "key": {"[1]": {"molecular_target": "Kappa-type opioid receptor (Homo sapiens) (UniProt P41145)", "experiment": "Displacement of [3H]dynorphin from human kappa opioid receptor expressed in C6 giloma cells measured total binding per mg of protein at 5 uM", "type": "cell-based", "method_in_brief": "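Membranes from C6 glioma cells stably transfected with human KOR (G418 selected), harvested in PBS, homogenized in 50 mM Tris–HCl pH 7.4 and spun at 30,000g. Nonspecific binding defined with 10 µM U50488H. Read by filtration and counting.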"}, "Rattus norvegicus": {"species": "Rattus norvegicus", "experiment": "Induction of ERK phosphorylation in rat astrocyte at 1 uM after 10 mins"}}, "note": "Active and inactive are the calls of the source. The rule behind the calls is not given here."}
{"smiles": "CN(C(=O)Cc1ccc(Cl)c(Cl)c1)C1CCCCC1N1CCCC1", "note": "(configuration not stated)", "values": [{"measurement": "Activity", "setting": "[1]", "result": 19, "unit": "%"}, {"measurement": "Activity", "setting": "Rattus norvegicus", "result": "Active"}]}
